Test results: BindingDB's records for PubMed 1652050 (Seattle Veterans Affairs Medical Center, 1991)

The chains behind the UniProt entries cited, without tags or fusion partners. Where a name states a change or a piece, a line headed by the entry shows the natural chain unless it says otherwise.
UniProt P28221: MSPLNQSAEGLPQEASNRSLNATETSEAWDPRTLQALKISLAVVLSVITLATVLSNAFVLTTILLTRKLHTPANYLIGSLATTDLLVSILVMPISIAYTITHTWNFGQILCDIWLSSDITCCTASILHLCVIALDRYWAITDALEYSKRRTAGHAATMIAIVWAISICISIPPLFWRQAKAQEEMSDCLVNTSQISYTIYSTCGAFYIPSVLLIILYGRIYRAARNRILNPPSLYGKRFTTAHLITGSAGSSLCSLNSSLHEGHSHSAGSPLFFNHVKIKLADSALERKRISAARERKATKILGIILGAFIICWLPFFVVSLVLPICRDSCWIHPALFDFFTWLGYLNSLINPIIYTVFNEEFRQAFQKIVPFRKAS

Biological target: 5-hydroxytryptamine receptor 1D (Homo sapiens, UniProt P28221)

For COc1ccc2[nH]cc(CCN)c2c1 [tryptamine, 5-Methoxy], the Ki was 2.2 nM.
